In US20260384452A1, “TRIAZOLO RING COMPOUND METHANESULFONATE CRYSTAL FORM, PREPARATION METHOD THEREFOR AND USE THEREOF” (published 2026):

Columns and labels:
[1] = Stability of Crystal Form G: 1-month stability under illumination (5000 lux), high temperature of 60 °C, and high humidity RH 92.5%
Protocol: A sample, i.e., the crystal form G of the compound methanesulfonate of formula (I), was subjected to 1-month stability investigation under conditions of illumination (5000 lux), high temperature of 60 °C, and high humidity RH 92.5%.

[2] = 3-month long-term stability of crystal form G under high humidity RH 92.5% condition; conditions: 3 months
Excerpt: The crystal form G of the compound methanesulfonate of formula (I) was subjected to 3-month long-term stability investigation under high humidity RH 92.5% condition.

[3] = 1 month, high temperature 60 °C, illumination 5000 lux, high humidity RH 92.5%

- chemical degradation [1, 3]: substantially no chemical degradation
- stability of crystal form [1, 3]: very stable
- Purity ([1]; High humidity (RH 92.5%), 0 days): 99.5%
- Purity ([1]; High humidity (RH 92.5%), 5 days): 99.5%
- Purity ([1]; High humidity (RH 92.5%), 10 days): 99.5%
- Purity ([1]; High humidity (RH 92.5%), 30 days): 99.4%
- Purity ([1]; High temperature (60 °C), 0 days): 99.5%
- Purity ([1]; High temperature (60 °C), 5 days): 99.5%
- Purity ([1]; High temperature (60 °C), 10 days): 99.4%
- Purity ([1]; High temperature (60 °C), 30 days): 99.4%
- Purity ([1]; Illumination (5000 lux), 0 days): 99.5%
- Purity ([1]; Illumination (5000 lux), 5 days): 99.4%
- Purity ([1]; Illumination (5000 lux), 10 days): 99.4%
- Purity ([1]; Illumination (5000 lux), 30 days): 99.4%
- stability of crystal form [2]: very stable
SMILES: CN1C(=O)COc2c1cnc1ccc(Sc3nnc4c(F)cc(-c5cnn(C)c5)cn34)cc21
- polymorphic transformation and dissociation [2]: no polymorphic transformation and dissociation occurred
